# Patent US20250282834A1, “PEPTIDE INHIBITORS FOR CHROMODOMAIN HELICASE DNA BINDING PROTEIN 4 (CHD4)” (THE REGENTS OF THE UNIVERSITY OF CALIFORNIA, priority 2022, published 2025)
# “Also recorded” adds a separate entry of the source.
# Tests used:
# [1] = Toxicology studies in BALB/c mice (body weight, serum biochemistry); format: in vivo; conditions: 10 mg/kg every other day i.p.
# [2] = Maximum tolerated dose in NRG mice; format: in vivo
# [3] = tested on: primary effusion lymphoma (PEL) cells (BC3, BCBL-1); format: cell-based
# Protocol: FIG. 4 VGN73 inhibits cell growth on various cancer cell types and induces apoptosis and autophagy in BC3 cells. FIG. 4a. MT assays were performed with the indicated cell lines treated with various VGN73 and mutant peptide concentrations for 24 hours. The OD of mock-treated samples were set as 100%, and OD from detergent-treated cells were set as 0%. Mean percentage viability±SD was calculated for each treatment (n=3 samples/treatment). FIG. 4b. VGN73 induces apoptosis. BC3 cells were incubated with of VGN73 (18 μM) for 0, 1, 4, and 24 hours, followed by measurements of percentage apoptosis induction (Annexin V staining) by flow cytometry. Median percentage apoptosis was calculated for each treatment time (n=3 samples/treatment time) (a). […] Cleaved caspase 3 were calculated by normalizing to untreated sample, and untreated sample set as 100% (b). […] Median percentage apoptosis was calculated for each treatment time (n=3 samples/treatment) (a). […] ratios were calculated by normalizing to untreated sample, and untreated sample set as 100% (b). […] Cell viability were determined by MTT assay (n=5 samples/treatment). *; p<0.05. **; p<0.01 versus the control group, #; p<0.05 versus the Z-VAD-FMK group.
# The cytotoxic activity of VGN73 and mutant peptide were measured using the MTT assay. […] The optical densities (ODs) were measured at 570 nm with a Benchmark Plus Microplate Spectrophotometer (Bio-Rad). […]
# BC3 cells [4] = assay: Apoptosis by Annexin V flow cytometry; format: cell-based; conditions: 18 μM, 0, 1, 4, 24 hours
# [5] = tested on: BC3, BCBL-1 or Raji cells; assay: SLAM-seq direct target gene identification; format: cell-based, human
# U937 cells [6] = assay: MTT cell viability assay, U937; format: cell-based; conditions: 24 hours
# [7] = tested on: HaCaT cells, immortalized keratinocytes; assay: MTT cell viability assay, HaCaT; format: cell-based; conditions: 24 hours
# U937 cells [8] = assay: U937 monocyte-macrophage differentiation model (total RNA-sequencing, flow cytometry); format: cell-based, human
# BC3 cells [9] = assay: Autophagy by Autophagy Red flow cytometry; format: cell-based; conditions: 18 μM, 24 hours, rapamycin 50 nM positive control
# BCBL-1 cells = assay: PEL xenograft mouse model; format: in vivo, NRG mice
# [10] = Cell membrane penetration of peptide design; format: cell-based; conditions: histidine instead of phenylalanine (F) at the third position
# THP-1 cells = assay: MTT cell viability assay, THP-1; format: cell-based; conditions: 24 hours
# [11] = Peptide solubility in water; conditions: histidine instead of phenylalanine (F) at the third position
structure (smiles),measurement,setting,value
"CC[C@H](C)[C@H](NC(=O)[C@@H](NC(=O)[C@H](C)NC(=O)[C@H](Cc1c[nH]cn1)NC(=O)[C@H](CCCCN)NC(=O)[C@H](Cc1c[nH]c2ccccc12)NC(=O)CCNC(=O)[C@H](CCCNC(=N)N)NC(=O)[C@H](CCCNC(=N)N)NC(=O)[C@H](CCCNC(=N)N)NC(=O)[C@H](CCCN)NC(=O)[C@H](CCCNC(=N)N)NC(=O)[C@H](CCCNC(=N)N)NC(=O)[C@H](CCCCN)NC(=O)[C@H](CCCCN)NC(=O)[C@H](N)CCCNC(=N)N)C(C)C)C(=O)N[C@@H](Cc1ccccc1)C(=O)N[C@@H](Cc1c[nH]c2ccccc12)C(=O)NCC(=O)N[C@@H](CC(N)=O)C(=O)N[C@@H](CC(=O)O)C(=O)N1CCC[C@H]1C(=O)N[C@@H](Cc1ccc(O)cc1)C(=O)NCC(=O)N[C@@H](CC(C)C)C(=O)N[C@@H](CCCCN)C(=O)N[C@@H](CCCCN)C(=O)O [VGN73, (d-Arg}KKRR{ORN}RRR{β-Ala}WKHAVIFWGNDPYGLKK]",body weight,[1],no decreased body weight over three weeks
same,blood chemistry,[1]; end of experiment,no sign of organ damage
same,MTD,"[2]; both sexes, NRG, mouse, in vivo, ip, intraperitoneally every other day",12.5 mg/kg
same,mice died,[2]; injections of more than 15 mg/kg,one of eight
same,dose showing a sign of discomfort such as decreased overall mobility,[2]; intraperitoneal injections,more than 15 mg/kg
same,cancer cell death in vitro tissue culture,[3],effectively induces cancer cell death
same,PEL cell growth (MTT),"[3]; 0-64 μM, 24 hours",inhibited PEL cell growth in a dose-dependent manner
same,cellular apoptosis (Annexin V),BC3 cells [4],induces cellular apoptosis
same,commonly up-regulated direct target genes,"[5]; IC50 concentration, 30 min before 4sU, 1.5 hrs labeling, vs PBS and mutant","KLF6, MYADM, FOSB, RGS2, JUN, JUND, CCL3, and PPP1R15A are commonly upregulated among three cell lines"
same,TP53 gene expression,[5]; specific to BC3 cells,induction of TP53 gene expression
same,sensitivity of U937 cells (MTT),U937 cells [6],highest sensitivity; also recorded: most sensitive
same,sensitivity of HaCaT cells (MTT),[7],resistant; also recorded: not very sensitive
same,macrophage and dendritic cell marker on the cell surface (flow cytometry),"U937 cells [8]; U937, 4 μM 2 days, then PMA 10 ng/mL 3 days",increased macrophage and dendritic cell marker on the cell surface
same,PMA-mediated upregulated genes after VGN73 pretreatment (total RNA-sequencing),"U937 cells [8]; U937, 4 or 8 μM 24 hours, then PMA 10 ng/mL 24 hours",significantly increased the repertories of PMA-mediated upregulated genes
same,autophagy / auto-phagosome formation (Autophagy Red),BC3 cells [9],induced autophagy in BC3 cells similarly to rapamycin treatment
same,ascites fluid produced,"BCBL-1 cells; 10 mg/kg i.p. every other day, Day 19",very little ascites fluid was produced
same,BCBL-1 growth by bioluminescence imaging,"BCBL-1 cells; 10 mg/kg i.p. every other day, days 14 and 19",substantially inhibited
same,total number of PEL cells in ascites fluid,"BCBL-1 cells; Day 19, flow cytometry",inhibition of PEL growth
same,CHD4 and LANA signals in PEL cells from xenograft tumors,BCBL-1 cells; IFA of ascites cells,lowered both CHD4 and LANA signals
same,CD38 gene expression in recovered PEL cells,"BCBL-1 cells; RT-qPCR, ascites cells",significantly downregulated; also recorded: significantly decreased
same,CD19 gene expression in recovered PEL cells,"BCBL-1 cells; RT-qPCR, ascites cells, did not meet statistical significance",slightly increased
same,side effects in mice,BCBL-1 cells; therapeutic dose,no measurable side effects
same,cell membrane penetration,[10],better cell membrane penetration
same,sensitivity of THP-1 cells (MTT),THP-1 cells,highest sensitivity; also recorded: most sensitive
same,peptide solubility in water,[11],increased peptide solubility in water
